# US6531481B2 (priority 1998, dated 2003)
# By UniProt entry, the sequences of proteins in these tests, tags left out. Where a name states a change or a piece, a line headed by the entry shows the natural chain unless it says otherwise. Residues count along the entry.
# UniProt P33535, whole entry: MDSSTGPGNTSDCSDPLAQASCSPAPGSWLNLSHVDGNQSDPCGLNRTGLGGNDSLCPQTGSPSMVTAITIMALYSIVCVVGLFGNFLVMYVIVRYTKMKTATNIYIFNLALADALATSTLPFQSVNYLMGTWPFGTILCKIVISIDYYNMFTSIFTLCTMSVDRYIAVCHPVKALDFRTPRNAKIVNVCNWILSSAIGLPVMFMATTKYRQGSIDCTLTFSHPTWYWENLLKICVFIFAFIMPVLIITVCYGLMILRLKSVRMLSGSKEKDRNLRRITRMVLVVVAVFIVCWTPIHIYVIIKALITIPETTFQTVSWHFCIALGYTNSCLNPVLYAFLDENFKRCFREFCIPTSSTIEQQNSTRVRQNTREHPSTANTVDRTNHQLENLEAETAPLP
# UniProt P41144: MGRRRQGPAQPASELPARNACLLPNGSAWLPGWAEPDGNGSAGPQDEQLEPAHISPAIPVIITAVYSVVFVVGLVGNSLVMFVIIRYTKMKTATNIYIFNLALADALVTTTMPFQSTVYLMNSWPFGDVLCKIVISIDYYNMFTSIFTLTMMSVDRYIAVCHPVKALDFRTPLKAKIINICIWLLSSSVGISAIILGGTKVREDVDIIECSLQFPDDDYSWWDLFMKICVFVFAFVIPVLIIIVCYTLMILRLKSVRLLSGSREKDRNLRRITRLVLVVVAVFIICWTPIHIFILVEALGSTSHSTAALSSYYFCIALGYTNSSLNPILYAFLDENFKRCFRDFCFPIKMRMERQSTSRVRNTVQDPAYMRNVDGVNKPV
# UniProt P33533, whole entry: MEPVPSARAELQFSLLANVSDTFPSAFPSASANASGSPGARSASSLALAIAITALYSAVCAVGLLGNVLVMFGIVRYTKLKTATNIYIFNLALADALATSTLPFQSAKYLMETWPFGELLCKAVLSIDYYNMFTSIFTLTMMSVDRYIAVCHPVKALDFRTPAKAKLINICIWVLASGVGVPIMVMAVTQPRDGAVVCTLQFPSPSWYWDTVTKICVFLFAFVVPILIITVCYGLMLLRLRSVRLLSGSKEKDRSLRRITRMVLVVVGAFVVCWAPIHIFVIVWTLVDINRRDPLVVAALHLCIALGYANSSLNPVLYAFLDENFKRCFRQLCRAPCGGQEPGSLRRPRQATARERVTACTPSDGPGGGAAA
# UniProt A0ACM8Q262, 1-400: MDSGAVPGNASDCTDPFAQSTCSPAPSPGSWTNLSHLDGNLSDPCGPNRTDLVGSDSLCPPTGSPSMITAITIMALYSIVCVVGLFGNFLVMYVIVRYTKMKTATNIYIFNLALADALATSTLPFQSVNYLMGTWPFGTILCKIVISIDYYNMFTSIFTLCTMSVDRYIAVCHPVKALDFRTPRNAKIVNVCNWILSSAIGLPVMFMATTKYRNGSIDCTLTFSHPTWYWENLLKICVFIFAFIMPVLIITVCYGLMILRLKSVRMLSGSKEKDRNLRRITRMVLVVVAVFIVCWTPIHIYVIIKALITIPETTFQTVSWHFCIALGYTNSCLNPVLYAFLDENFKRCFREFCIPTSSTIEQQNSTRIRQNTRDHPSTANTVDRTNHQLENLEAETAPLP
# Read-outs that look alike come from different tables or passages of the source.
# Legend:
# mu opioid receptor [1] = target: mu opioid receptor (Rattus norvegicus, UniProt P33535)
# kappa opioid receptor [2] = target: T1, kappa opioid receptor (Cavia porcellus, UniProt P41144); conditions: for Ki: read-out: Ki [3H]U69,593 (κ)
# delta opioid receptor [3] = target: T2, delta opioid receptor (Rattus norvegicus, UniProt P33533); experiment: biochemical
# mu opioid receptor [4] = target: mu opioid receptor (Cavia porcellus, UniProt A0ACM8Q262); experiment: Inhibition of DAMGO-stimulated [35S]GTPγS binding in guinea pig caudate; type: biochemical; conditions: [35S]GTPγS assay
# Protocol: [^35S]-GTP-γ-S Binding Assay. Ten frozen guinea pig brains (Harlan Bioproducts for Science, Inc, Indianapolis, Ind.) were thawed, and the caudate putamen were dissected and homogenized in buffer A (3 mL/caudate) (Buffer A=10 mM Tris-HCl, pH 7.4 at 4° C. containing 4 μg/mL leupeptin, 2 μg/mL chymostatin, 10 μg/mL bestatin, and 100 μg/mL bacitracin) using a polytron (Brinkman) at setting 6 until a uniform suspension was achieved. The homogenate was centrifulged at 30,000×g for 10 min at 4° C. and the supernatant discarded. The membrane pellets were washed by resuspension and centrifugation twice more with fresh buffer A, aliquotted into microfuge tubes, and centrifuged in a Tomy refrigerated microfuge (model MTX 150) at maximum speed for 10 min. The supernatants were discarded, and the pellets were stored at −80° C. until assayed.
# For the [^35S]GTP-γ-S binding assay, all drug dilutions were made up in buffer B [50 mM TRIS-HCl, pH 7.7/0.1% BSA]. […] Bound radioactivity was counted by liquid scintillation spectroscopy using a Taurus (Micromedic) liquid scintillation counter at 98% efficiency after an overnight extraction in 5 mL Cytoscint scintillation fluid. Nonspecific binding was determined in the presence of 10 μM GTP-γ-S. Assays were performed in triplicate, and each experiment was performed at least 3×.
# Data Analysis. […] The Ki values were then determined using the equation: IC50/1+([L]Kd). […]
# delta opioid receptor [5] = target: T2, delta opioid receptor; set-up: using rat brain membranes prepared as described; from tissue; host or cells: rat brain membranes; conditions: cited from earlier work
# kappa opioid receptor [6] = target: T1, kappa opioid receptor; set-up: from tissue; conditions: cited from earlier work
Compound,"slope factor (-nH), value in parentheses, [3H]DAMGO (mu opioid receptor [1])","slope factor (-nH), value in parentheses, [3H]U69,593 (kappa opioid receptor [2])",Ki (kappa opioid receptor [2]) [nM],μ/κ (kappa opioid receptor [2]),other results
"CN1CCC2(c3cccc(O)c3)Cc3ccccc3CC2(C)C1 (racemic) [Compound 7, (±)-1,2,3,4,4a,5,10,10a-octahydro-4a-(3-hydroxyphenyl)-2,10a-dimethylbenzo-[g]isoquinoline]",(1.02 ± 0.07),(0.87 ± 0.06),,,
"CC1C2CCCC1(c1cccc(O)c1)CCN2CCc1ccccc1 (stereo not drawn) [Compound 5c, 5-(3-Hydroxyphenyl)-9β-methyl-2-(2′-phenylethyl)-2-azabicyclo[3.3.1]nonane]",,,14.5 ± 0.99,,
CC(C)C[C@@H](CN1CCC(C)(c2cccc(O)c2)C(C)C1)NC(=O)CCc1ccc(O)cc1 (stereo partly drawn) [Compound 24],(0.91 ± 0.16),(0.78 ± 0.05),89.3 ± 7.03,4.5,
CCC(C)[C@@H](CN1CC[C@@](C)(c2cccc(O)c2)[C@@H](C)C1)NC(=O)CCc1ccc(O)cc1 (stereo partly drawn) [Compound 25],(0.91 ± 0.06),(0.87 ± 0.02),,47,
CC1CN(C[C@H](Cc2ccccc2)NC(=O)CCc2ccc(O)cc2)CCC1(C)c1cccc(O)c1 (stereo partly drawn) [Compound 27],(0.89 ± 0.09),(0.86 ± 0.04),54.6 ± 3.5,0.17,
CC(C)[C@@H](CN1CC[C@@](C)(c2cccc(O)c2)[C@@H](C)C1)NC(=O)CCc1ccc(O)cc1 [compound 8],,,,,Ki (delta opioid receptor [3]): > 5700 nM
O=C1CC[C@@]2(O)[C@H]3Cc4ccc(O)c5c4[C@@]2(CCN3CC2CC2)[C@H]1O5 [naltrexone],,,,,"slope factor (−nH / N), DAMGO (mu opioid receptor [4]): (1.03 ± 0.22)"
"(+)-N-[trans-4-phenyl-2-butenyl]-(3R,4R)-dimethyl-4-(3-hydroxyphenyl)piperidine [Compound 5a]",,,,0.006,"slope factor (-nH) [3H]DADLE (delta opioid receptor [5]): (0.75 ± 0.09); Ki (delta opioid receptor [5]; read-out: Ki [3H]DADLE (δ)): 322 ± 38.1 nM; slope factor (-nH) [3H]U69,593 (kappa opioid receptor [6]): (0.52 ± 0.07); Ki (kappa opioid receptor [6]; read-out: Ki [3H]U69,593 (κ)): 122 ± 11.9 nM; δ/κ (kappa opioid receptor [2]): 2.6"
"N-{(2′S)-[3-(4-Hydroxyphenyl)propanamido]-2′-cyclohexylethyl}-(3R,4R)-dimethyl-4-(3-hydroxyphenyl)piperidine [Compound 26]",(0.84 ± 0.08),(0.79 ± 0.04),83.1 ± 5.7,2.8,Ki (mu opioid receptor [1]; read-out: Ki [3H]DAMGO (μ)): 234 ± 25.2 nM
